The values that follow come from paper PMC4460250, “Systems Pharmacology Dissecting Holistic Medicine for Treatment of Complex Diseases: An Example Using Cardiocerebrovascular Diseases Treated by TCM” (Evidence-based Complementary and Alternative Medicine : eCAM, 2015).

For series [1] the following is noted: PreHIA data set, value given as fraction; cited from earlier work.
The nature of series [2]: Human intestinal absorption percentage values of the PreHIA data set (732 compounds, Table S2). The following applies: class from HIA value.

Structures are written as SMILES.

For the compound `O=P1(N(CCCl)CCCl)OCCCN1CCCl` (centres unmarked), the “HIA(Human Intestinal Absorption)” value in series [1] was 1. Also, the “Class(High: HIA value ≥0.7; Low: HIA value < 0.7)” value in series [2] is “High (High: HIA value ≥0.7)”.
